Source: patent publication US4590193A, “3-(2-(4-phenylpiperazinylethyl)anilino)-isobenzofuranones, their method of preparation and their use as antihypertensive and antiallergic drugs” (Societe Cortial, S.A., priority 1982, dated 1986)

Protein sequences, listed by entry. Tags and fused reporters are not part of them.
UniProt P31389, whole entry: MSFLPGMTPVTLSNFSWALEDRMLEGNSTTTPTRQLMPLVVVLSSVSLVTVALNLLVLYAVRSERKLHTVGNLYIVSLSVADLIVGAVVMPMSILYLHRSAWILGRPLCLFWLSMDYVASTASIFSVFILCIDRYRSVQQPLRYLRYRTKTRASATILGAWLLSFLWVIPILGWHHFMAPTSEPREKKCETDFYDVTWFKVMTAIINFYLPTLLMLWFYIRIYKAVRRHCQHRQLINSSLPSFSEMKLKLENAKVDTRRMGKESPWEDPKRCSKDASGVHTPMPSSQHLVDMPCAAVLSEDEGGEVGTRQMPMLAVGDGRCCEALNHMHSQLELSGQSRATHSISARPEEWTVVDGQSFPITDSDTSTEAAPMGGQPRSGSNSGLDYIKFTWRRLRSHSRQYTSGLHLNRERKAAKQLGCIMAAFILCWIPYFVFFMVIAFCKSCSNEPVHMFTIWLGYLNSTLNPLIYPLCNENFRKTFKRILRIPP

Molecular target: T1, contractions induced by histamine on a guinea pig ileum (Cavia porcellus, UniProt P31389)
T1 construct: on a guinea pig ileum; from tissue; host or cells: isolated guinea pig ileum
Assay: In vitro antihistamine activity: inhibition of histamine-induced contractions of guinea pig ileum
Type: cell-based
Settings: histamine 10^-8 g/l; time of contact 15 mm
Experimental: The antagonist is administered at the same time as the agonist or before. In the latter case, the time of contact between the antagonist and the organ isolated before the introduction of the agonist is shown in Table III.

`CC(CN1c2ccccc2Sc2ccccc21)N(C)C` (stereo not shown) [Promethazine, reference compound] showed an IC50 of 4.93 nM.
